Among the data in patent US20040006214A1 are Adsorption rate (%) values, retold here.

For this test, the target named is hepatitis C virus in patient serum. Briefly: immobilized adsorbent shaken with HCV patient serum 37 C 2 h; HCV RNA in supernatant against saline control.

Consider “protein A (Sigma) (from UniProt P38507 37-477)”, for which the Adsorption rate (%) is 66%.
